Measurements reported in US10071163B2, “Compositions and methods for selective delivery of oligonucleotide molecules to specific neuron types” (nLife Therapeutics, S.L., priority 2010, dated 2018).

Amino acid sequences for entries named in this document (tags omitted).
UniProt Q60857, whole entry: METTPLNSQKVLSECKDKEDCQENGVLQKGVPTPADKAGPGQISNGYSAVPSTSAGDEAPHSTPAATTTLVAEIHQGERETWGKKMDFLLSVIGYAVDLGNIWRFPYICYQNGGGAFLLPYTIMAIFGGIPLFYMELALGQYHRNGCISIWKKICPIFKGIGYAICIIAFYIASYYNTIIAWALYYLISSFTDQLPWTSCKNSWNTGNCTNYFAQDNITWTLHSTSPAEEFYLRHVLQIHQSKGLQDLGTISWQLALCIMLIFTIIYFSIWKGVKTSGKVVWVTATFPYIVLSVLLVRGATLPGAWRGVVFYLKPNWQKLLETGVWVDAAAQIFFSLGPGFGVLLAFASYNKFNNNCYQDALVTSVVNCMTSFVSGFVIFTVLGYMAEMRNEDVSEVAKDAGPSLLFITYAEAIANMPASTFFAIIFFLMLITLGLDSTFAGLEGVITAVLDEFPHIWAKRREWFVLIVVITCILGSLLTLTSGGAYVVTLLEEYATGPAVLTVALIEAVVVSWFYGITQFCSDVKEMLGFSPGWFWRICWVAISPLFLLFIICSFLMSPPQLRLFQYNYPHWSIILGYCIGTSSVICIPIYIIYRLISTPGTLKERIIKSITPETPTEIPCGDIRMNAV

Target: T1, 5-HTT (Mus musculus, UniProt Q60857)
T1 construct: from tissue; host or cells: mouse brain (raphe nuclei, striatum and other regions): living animal or frozen sections
Assay: Microdialysis of 5-HT in dorsal striatum after fluoxetine or local citalopram, intranasal 5-HTT-NLF-siRNA
Format: in vivo, mice (C57BL/6J)
Conditions: intranasal 10 and 30 μg

5-HTT-NLF-siRNA: 5-HTT-targeted siRNA (SEQ ID NO 14/15) conjugated to a group of formula (I) and one targeting agent (sertraline) (chain 1 GCUAGCUACAACAAGUUCATT; chain 2 UGAACUUGUUGUAGCUAGCTT; further chemistry not given here)
local citalopram effect on 5-HT levels in striatum of siRNA-treated mice (citalopram 1-10-50 μM local, FIG. 16B): only at 50 μM produced a light increase | fluoxetine-induced increase of 5-HT level in dorsal striatum of siRNA-treated mice (fluoxetine 20 mg/kg i.p., FIG. 16A): not in 5-HTT-NLF-siRNA groups
